{"source": "patent US4560662A", "about": "“Streptomyces antibioticus ATCC 31771 and process for obtaining same” (priority 1981, dated 1985)", "assay_type": "physicochemical", "conditions": "25° C.", "description": "Stability in acidic environment at 25° C. of the novel\nantibiotics in comparison with erythromycin A\nt 1/2 represents the half life time of the antibiotics as determined by\nhigh pressure liquid phase chromatography (HPLC).", "note": "Read-outs that look alike come from different tables or passages of the source."}
{"substance": "3-O-oleandrosyl-5-O-desosaminyl-(8S)-8,19-epoxyerythronolide B [P 15153]", "values": [{"measurement": "t 1/2", "setting": "pH 3.0", "result": "> 100", "unit": "h"}, {"measurement": "t 1/2", "setting": "pH 4.0", "result": "> 100", "unit": "h"}]}
